Measurements taken from PMC7072677, “Arachidonoylcholine and Other Unsaturated Long-Chain Acylcholines Are Endogenous Modulators of the Acetylcholine Signaling System” (Biomolecules, 2020).

Chains of the proteins cited; added tags and fusions are not shown. Lines headed by an entry give the natural chain unless they say otherwise; changes in a name come on top. Residues count along the entry.
UniProt P58154, 20-229 limits assumed: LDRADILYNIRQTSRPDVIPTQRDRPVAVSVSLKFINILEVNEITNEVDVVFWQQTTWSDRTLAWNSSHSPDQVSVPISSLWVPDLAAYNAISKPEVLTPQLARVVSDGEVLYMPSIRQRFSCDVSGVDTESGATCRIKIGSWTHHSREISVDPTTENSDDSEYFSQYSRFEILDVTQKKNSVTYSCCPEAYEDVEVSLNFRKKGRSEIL
UniProt P02710: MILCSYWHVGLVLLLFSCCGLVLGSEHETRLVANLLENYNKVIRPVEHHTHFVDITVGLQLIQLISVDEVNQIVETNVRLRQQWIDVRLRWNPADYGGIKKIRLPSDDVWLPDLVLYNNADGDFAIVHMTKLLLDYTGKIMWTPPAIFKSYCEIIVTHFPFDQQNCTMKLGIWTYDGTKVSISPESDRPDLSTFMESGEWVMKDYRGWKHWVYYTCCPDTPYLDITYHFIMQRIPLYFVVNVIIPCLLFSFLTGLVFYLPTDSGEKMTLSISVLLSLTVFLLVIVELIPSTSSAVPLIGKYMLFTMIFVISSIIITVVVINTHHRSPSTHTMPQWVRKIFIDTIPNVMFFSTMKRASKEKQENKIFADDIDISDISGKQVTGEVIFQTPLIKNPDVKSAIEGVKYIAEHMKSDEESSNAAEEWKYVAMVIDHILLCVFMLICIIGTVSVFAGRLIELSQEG
UniProt P02714: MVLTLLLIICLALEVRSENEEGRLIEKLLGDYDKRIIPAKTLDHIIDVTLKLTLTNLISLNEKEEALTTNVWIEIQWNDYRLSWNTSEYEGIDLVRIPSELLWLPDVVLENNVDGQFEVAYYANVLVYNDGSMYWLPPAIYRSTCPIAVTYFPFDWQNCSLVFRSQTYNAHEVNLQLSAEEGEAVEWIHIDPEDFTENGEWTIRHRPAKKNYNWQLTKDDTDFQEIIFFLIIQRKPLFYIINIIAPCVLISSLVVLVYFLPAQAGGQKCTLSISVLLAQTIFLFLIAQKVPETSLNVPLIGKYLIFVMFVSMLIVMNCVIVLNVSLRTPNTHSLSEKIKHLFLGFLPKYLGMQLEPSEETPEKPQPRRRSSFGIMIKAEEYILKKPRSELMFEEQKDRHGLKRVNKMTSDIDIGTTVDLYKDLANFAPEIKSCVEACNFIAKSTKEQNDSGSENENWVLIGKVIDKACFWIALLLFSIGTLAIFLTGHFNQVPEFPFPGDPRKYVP
UniProt P02718: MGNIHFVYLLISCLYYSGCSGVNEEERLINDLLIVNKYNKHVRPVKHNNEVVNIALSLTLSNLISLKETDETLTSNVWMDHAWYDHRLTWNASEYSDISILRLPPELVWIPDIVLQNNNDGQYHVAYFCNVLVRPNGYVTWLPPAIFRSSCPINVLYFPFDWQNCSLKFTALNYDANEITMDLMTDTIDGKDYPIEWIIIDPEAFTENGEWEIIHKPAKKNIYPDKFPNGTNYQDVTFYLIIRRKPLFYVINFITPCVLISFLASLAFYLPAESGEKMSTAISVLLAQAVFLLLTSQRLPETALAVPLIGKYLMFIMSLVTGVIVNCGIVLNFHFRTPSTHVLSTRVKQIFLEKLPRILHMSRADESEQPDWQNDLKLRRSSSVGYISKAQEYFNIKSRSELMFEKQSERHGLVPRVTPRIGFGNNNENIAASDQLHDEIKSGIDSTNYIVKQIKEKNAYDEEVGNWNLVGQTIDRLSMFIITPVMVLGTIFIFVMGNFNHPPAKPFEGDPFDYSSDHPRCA
UniProt P36544, 23-502 limits assumed: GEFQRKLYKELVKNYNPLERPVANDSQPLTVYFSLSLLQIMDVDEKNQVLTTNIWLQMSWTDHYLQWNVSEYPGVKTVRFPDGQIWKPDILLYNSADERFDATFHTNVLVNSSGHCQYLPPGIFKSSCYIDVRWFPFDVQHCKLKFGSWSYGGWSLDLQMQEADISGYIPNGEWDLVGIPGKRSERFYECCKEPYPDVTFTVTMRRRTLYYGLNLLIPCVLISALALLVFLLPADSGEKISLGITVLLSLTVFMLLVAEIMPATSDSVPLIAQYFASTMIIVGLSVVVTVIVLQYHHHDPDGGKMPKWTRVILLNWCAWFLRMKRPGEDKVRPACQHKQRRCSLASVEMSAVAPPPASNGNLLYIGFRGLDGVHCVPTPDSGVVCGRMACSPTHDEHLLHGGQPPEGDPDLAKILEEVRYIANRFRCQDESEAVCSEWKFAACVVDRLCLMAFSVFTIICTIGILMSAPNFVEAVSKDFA

How the values were obtained:
L. stagnalis AChBP = L. stagnalis AChBP (Lymnaea stagnalis, UniProt P58154); experiment: 125I-αBgt radioligand competition assay, AChBP; details: read-out: IC50, μM (95% CI) L. stagnalis AChBP; competition with 125I-αBgt
T. californica nAChR = T. californica nAChR (Tetronarce californica, UniProt P02710+P02714+P02718); experiment: 125I-αBgt radioligand competition assay, Torpedo membranes; details: for IC50: read-out: IC50, μM (95% CI) T. californica nAChR, competition with 125I-αBgt, Torpedo membranes; for effect on 125I-αBgt binding to Torpedo membranes: 40 μM
α7 nAChR = α7 nAChR (Homo sapiens, UniProt P36544); experiment: 125I-αBgt radioligand competition assay, α7 nAChR-transfected GH4C1 cells; details: for IC50: read-out: IC50, μM (95% CI) human α7 nAChR, competition with 125I-αBgt, GH4C1 cells; for effect on 125I-αBgt binding to GH4C1 cells: 40 μM
[1] = listed as sodium dodecyl sulfate

## CCCCC/C=C\C/C=C\C/C=C\C/C=C\CCCC(=O)OCC[N+](C)(C)C [AA-CHOL, Arachidonoylcholine]
L. stagnalis AChBP
  IC50: 21.3 µM
T. californica nAChR
  IC50: 47.6 µM
α7 nAChR
  IC50: 35.9 µM

## CC/C=C\C/C=C\C/C=C\C/C=C\C/C=C\C/C=C\CCC(=O)OCC[N+](C)(C)C [DHA-CHOL, docosahexaenoylcholine]
L. stagnalis AChBP
  IC50: 25.1 µM
T. californica nAChR
  activity in competition experiments on T. californica nAChR: virtually inactive
  IC50: 93 µM
α7 nAChR
  activity in competition experiments on α7 nAChR: virtually inactive
  IC50: 80 µM

## CCCCC/C=C\C/C=C\CCCCCCCC(=O)OCC[N+](C)(C)C [Ln-CHOL]
L. stagnalis AChBP
  IC50: 2.3 µM
T. californica nAChR
  IC50: 18.7 µM
α7 nAChR
  IC50: 23.1 µM

## CCCCCCCC/C=C\CCCCCCCC(=O)OCC[N+](C)(C)C [Ol-CHOL]
L. stagnalis AChBP
  IC50: 13.4 µM
T. californica nAChR
  IC50: 39.8 µM

## sodium dodecyl sulfate
T. californica nAChR
  effect on 125I-αBgt binding to Torpedo membranes: did not differ from the control values
T. californica nAChR; [1]
  effect on 125I-αBgt binding to Torpedo membranes: did not inhibit α-bungarotoxin binding
α7 nAChR
  effect on 125I-αBgt binding to GH4C1 cells: did not differ from the control values
α7 nAChR; [1]
  effect on 125I-αBgt binding to GH4C1 cells: did not inhibit α-bungarotoxin binding
